pIC50: −log10 of the molar value.
Target: human NaV 1.8 (Homo sapiens, UniProt Q9Y5Y9)
Experiment: Automated whole-cell patch clamp (Qube384) voltage-clamp recordings of sodium currents in HEK-NaV1.8 cell line
Conditions: read-out: Potency category (human NaV 1.8 IC50)
Protocol: Electrophysiology: Voltage-Clamp Recordings
The following NaV1.8 recombinant cell line was used for recordings: HEK-NaV1.8 (NM_006514.1) with b3 (NM_018400.3).
Sodium currents were measured using the patch clamp technique in the whole-cell configuration using the Qube384 (Sophion A/S, Copenhagen, Denmark) automated voltage clamp platform. “Multi hole” plates were used for the cell line expressing NaV1.8 while “single hole” plates were used for the recombinant cell lines expressing the other subtypes. Appropriate filters (for minimum seal resistance and minimum current size) and series resistance compensation (for high quality sodium channel recordings) were applied. Data was collected at ambient room temperature or 19° C.
The recording extracellular solution contained (in mM): NaCl 145 mM, KCl 4 mM, CaCl2 2 mM, MgCl2 1 mM, HEPES 10 mM, Glucose 10 mM, pH 7.4 (NaOH). […] Currents were recorded at 25 kHz sampling frequency and filtered at 5 kHz. […]
Each parameter was recorded (P1, P2, P3, P40 from 10 Hz and P40 from 20 Hz) during a control period (lasting 5 minutes) when establishing the baseline and during compound period (lasting ~12 minutes) when test compound (or vehicle) was applied. […]
The adjusted inhibition was calculated as follows: […]
Percent inhibition was determined and IC50 values were calculated using a 4 parameter logistic model within XLFit Software (IDBS, Boston MA): F […]

By UniProt entry, the sequences of proteins in these tests, tags left out.
UniProt Q9Y5Y9, whole entry: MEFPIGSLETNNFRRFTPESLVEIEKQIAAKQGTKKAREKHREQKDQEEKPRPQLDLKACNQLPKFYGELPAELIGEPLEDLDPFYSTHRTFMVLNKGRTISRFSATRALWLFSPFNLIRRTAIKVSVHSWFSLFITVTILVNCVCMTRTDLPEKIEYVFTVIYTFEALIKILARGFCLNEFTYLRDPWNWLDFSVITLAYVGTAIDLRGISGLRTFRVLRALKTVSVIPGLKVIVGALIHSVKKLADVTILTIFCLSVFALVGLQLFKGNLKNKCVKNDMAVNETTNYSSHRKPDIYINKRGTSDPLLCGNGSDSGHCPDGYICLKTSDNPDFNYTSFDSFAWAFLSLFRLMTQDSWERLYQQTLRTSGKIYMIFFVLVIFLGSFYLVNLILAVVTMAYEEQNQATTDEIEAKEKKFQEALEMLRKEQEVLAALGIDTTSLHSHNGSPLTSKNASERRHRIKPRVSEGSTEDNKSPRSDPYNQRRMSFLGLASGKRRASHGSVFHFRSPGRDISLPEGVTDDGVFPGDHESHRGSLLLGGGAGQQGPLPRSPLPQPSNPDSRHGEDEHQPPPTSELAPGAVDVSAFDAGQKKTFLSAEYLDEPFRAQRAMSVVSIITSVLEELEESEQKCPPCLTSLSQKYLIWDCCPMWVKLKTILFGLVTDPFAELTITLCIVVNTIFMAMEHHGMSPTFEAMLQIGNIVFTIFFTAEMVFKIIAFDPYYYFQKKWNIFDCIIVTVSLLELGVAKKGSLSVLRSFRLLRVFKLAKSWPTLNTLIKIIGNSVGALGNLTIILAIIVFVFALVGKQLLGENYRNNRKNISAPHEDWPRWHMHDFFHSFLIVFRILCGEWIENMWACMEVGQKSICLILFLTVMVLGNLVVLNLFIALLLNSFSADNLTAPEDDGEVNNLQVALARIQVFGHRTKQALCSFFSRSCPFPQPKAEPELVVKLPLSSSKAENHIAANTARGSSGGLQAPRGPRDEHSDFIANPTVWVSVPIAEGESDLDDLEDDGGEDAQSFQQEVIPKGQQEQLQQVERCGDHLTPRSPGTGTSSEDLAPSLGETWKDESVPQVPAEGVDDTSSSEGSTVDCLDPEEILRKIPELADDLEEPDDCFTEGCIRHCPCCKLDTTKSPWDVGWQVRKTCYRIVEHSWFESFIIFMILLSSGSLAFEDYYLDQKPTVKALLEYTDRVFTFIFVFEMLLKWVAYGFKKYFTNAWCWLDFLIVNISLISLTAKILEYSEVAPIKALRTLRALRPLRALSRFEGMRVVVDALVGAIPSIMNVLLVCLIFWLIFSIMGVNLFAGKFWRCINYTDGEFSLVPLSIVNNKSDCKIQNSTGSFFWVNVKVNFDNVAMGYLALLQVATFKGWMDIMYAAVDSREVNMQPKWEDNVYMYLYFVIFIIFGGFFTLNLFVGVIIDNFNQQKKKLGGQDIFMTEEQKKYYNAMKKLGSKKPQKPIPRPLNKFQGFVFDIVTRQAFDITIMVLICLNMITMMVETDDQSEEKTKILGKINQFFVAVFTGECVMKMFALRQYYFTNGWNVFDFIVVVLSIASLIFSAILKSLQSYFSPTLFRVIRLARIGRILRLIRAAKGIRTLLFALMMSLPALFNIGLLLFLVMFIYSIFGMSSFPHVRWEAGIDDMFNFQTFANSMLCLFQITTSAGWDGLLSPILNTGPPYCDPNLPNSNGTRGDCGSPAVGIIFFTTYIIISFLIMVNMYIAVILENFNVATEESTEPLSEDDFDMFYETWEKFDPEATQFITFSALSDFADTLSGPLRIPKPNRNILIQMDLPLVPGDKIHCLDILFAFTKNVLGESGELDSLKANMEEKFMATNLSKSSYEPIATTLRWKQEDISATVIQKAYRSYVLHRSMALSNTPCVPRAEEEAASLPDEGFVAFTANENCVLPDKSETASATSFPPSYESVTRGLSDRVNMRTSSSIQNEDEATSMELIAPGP

SMILES: CC1(Cn2nc(C3CC3)c(C(F)(F)F)c2C(=O)Nc2ccnc([S@](C)(=N)=O)c2)CCC(F)(F)C1 (stereo partly shown)
- pIC50: > 7.00
